B1: recombinant His-tagged apical membrane antigen 1 (His-AMA1), unlabeled, Q7KQK5 1-622 (natural protein)
chain: QNYWEHPYQNSDVYRPINEHREHPKEYEYPLHQEHTYQQEDSGEDENTLQHAYPIDHEGAEPAPQEQNLFSSIEIVERSNYMGNPWTEYMAKYDIEEVHGSGIRVDLGEDAEVAGTQYRLPSGKCPVFGKGIIIENSNTTFLTPVATGNQYLKDGGFAFPPTEPLMSPMTLDEMRHFYKDNKYVKNLDELTLCSRHAGNMIPDNDKNSNYKYPAVYDDKDKKCHILYIAAQENNGPRYCNKDESKRNSMFCFRPAKDISFQNYTYLSKNVVDNWEKVCPRKNLQNAKFGLWVDGNCEDIPHVNEFPAIDLFECNKLVFELSASDQPKQYEQHLTDYEKIKEGFKNKNASMIKSAFLPTGAFKADRYKSHGKGYNWGNYNTETQKCEIFNVKPTCLINNSSYIATTALSHPIEVENNFPCSLYKDEIMKEIERESKRIKLNDNDDEGNKKIIAPRIFISDDKDSLKCPCDPEMVSNSTCRFFVCKCVERRAEVTSNNEVVVKEEYKDEYADIPEHKPTYDKMK
modifications: not checked

Assays:
[1] = target: recombinant His-tagged apical membrane antigen 1 (His-AMA1), unlabeled (Plasmodium falciparum), Q7KQK5; test: SPR
[2] = target: FITC labeled RON2 peptide (Plasmodium falciparum); test: fluorescence polarisation
[3] = target: FITC labeled RON2 peptide (Plasmodium falciparum); test: MST

Row | Binder | Kd [1] | EC50 [2] | Kd [3]
1 | DITQQAKDIGAGPVASCFTTRMSPPQQICLNSVVNTALS (modifications not checked) [unlabeled RON2 peptide] | 38.3 nM |  | 
2 | B1 |  | 48 nM | 28 nM
